Source: patent US11118204B2, “Switchable ionic liquids for biomass pretreatment and enzymatic hydrolysis” (National Technology & Engineering Solutions of Sandia, LLC, priority 2014, dated 2021)
“And” between values parts separate entries of the source, which are not always exact repeats. Equal values may be shown once.

How the values were obtained:
[1] = ionic liquid solution
[2] = system: E. coli DH10B; conditions: pH of ~5
[3] = system: S. cerevisiae; conditions: pH of ~5
[4] = system: E. coli DH10B; assay: E. coli growth in ionic liquids
[5] = system: E. coli BW25113; assay: Isopentenol production by fermentation in presence of ionic liquid or hydrolysate

Substance	solution pH [1]	concentration at which E. coli growth was inhibited [2]	concentration up to which S. cerevisiae maintained its maximum growth rate [3]	concentration up to which cultures reached the same maximum OD [4]	concentration up to which growth was observed [4]	concentration in fermentation media at which significant reduction of isopentenol yields occurred [5]
Choline succinate [[Ch][Sc]]	4-6	above 3%	up to 10%	–	–	–
choline glutamate [[Ch][Glu]]	5-7 and ~7	–	–	up to 15%	up to 20%	~12%
